Biological target: T1, NLK (Homo sapiens, UniProt Q9UBE8)
T1 sequence (Q9UBE8 1-527): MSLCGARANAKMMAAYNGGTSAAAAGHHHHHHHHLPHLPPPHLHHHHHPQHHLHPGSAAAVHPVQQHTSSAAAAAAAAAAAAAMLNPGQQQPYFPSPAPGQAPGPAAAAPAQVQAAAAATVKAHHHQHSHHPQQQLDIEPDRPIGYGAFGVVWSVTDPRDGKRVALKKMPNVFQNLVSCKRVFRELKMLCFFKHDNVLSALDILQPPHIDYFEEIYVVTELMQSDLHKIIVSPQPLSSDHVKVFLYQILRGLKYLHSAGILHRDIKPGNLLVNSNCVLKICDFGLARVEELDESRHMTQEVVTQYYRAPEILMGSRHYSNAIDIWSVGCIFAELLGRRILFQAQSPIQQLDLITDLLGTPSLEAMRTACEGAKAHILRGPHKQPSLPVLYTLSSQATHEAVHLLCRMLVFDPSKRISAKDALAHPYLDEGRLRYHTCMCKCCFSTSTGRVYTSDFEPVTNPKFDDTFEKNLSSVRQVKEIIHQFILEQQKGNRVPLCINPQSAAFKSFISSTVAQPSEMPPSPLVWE
Conditions: selectivity p38α over atypical NLK

`CN1CCN(c2cc(-c3ccncc3)c(-c3ccc4ccccc4c3)nn2)CC1` [MW150, 6-(4-Methylpiperazin-1-yl)-3-(naphthalen-2-yl)-4-(pyridin-4-yl)pyridazine] was tested, and the “IC50 for p38αMAPK better than that for NLK” value was ~6 fold.
